# AlphaSeq binding of Ab-14 heavy chain variants to a spike HR2 peptide

Values reported by Li et al. 2023, doi:10.1038/s41467-023-39022-2 (FLAb copy).

All variants were tested on one target, the spike HR2 peptide PDVDLGDISGINAS (SARS-CoV-2).

The variants keep the light chain, the linker and the frameworks of Ab-14 (scFv order VH, three GGGGS repeats, VL).
VH: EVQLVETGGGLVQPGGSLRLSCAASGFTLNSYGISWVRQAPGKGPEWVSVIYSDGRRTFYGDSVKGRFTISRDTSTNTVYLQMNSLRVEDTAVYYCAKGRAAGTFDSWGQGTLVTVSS
VL: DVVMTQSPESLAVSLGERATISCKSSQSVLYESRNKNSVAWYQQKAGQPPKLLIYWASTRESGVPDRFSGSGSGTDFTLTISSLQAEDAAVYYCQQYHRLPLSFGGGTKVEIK

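Phage display of a naive human antibody library on the peptide gave the parent. This is the validation round: designs drawn from the data on random variants, tested in the same kind of assay. Several design methods are mixed in this list. AlphaSeq pools MATa yeast showing the antibodies with MATalpha yeast showing the peptide. Mating (16 h, 30 °C) was followed by selection of diploids and sequencing of their barcodes. Each replicate has its own calibration line, from reference interactions of the BCL2 family. There are six technical replicates.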

Each variant is given by its three heavy chain CDRs, as the data file delimits them; those of the parent are GFTLNSYGIS, VIYSDGRRTFYGDSVK, GRAAGTFDS. This list holds designs with at most six substitutions. The read-out is the apparent dissociation constant on a log10 scale (nM): the lower, the stronger. The mean shown is taken over the replicates in which the pair was detected. Where no diploid with the target was found in any replicate, the entry reads "nd": below detection, most likely a poor binder, though not proof of it. Three control strains display no target. For all heavy chain designs, 1% of the pairings with them gave a signal, with a median of 2.08 and one signal in twenty below 0.84, so weak values seen in few replicates may be background. For each scFv, signals with the empty controls are counted beside the result. The range of this assay differs from that of the first round, and the authors advise against merging the two. The authors' rule: three or more of the six replicates give a measured affinity, fewer mean a poor binder. The parent sequence was in this pool as ten entries: three were never detected, three once, and four in most replicates, with averages from 0.34 to 2.37.

GFNLNSYGIS | VIYADGRRTFYGDSVK | GRAAGTNDS: nd (0 of 6 replicates; controls 0 of 18).
GFTLNEYGIS | VIYSDGRRTFYGDSVK | GRAAGTFSF: nd (0 of 6 replicates; controls 0 of 18).
IFTLDSYGIS | VIYSDGRRTFYGDSVK | GRLAGTFDS: 1.36 (2 of 6 replicates; controls 0 of 18).
GFDLNSYGIS | VIYSDGRRTFYGDSVK | GRGAGAFNS: nd (0 of 6 replicates; controls 0 of 18).
GFDLNEYGIS | VIYSDGRRTFYGDSVK | GRFAGTFDS: 0.79 (6 of 6 replicates; controls 1 of 18).
GFELNSYGIS | VIYSDGRRTFYADSVK | GRQAGTFDT: 0.45 (6 of 6 replicates; controls 0 of 18).
GFSLNEYGIS | VIYSDGRRTMYGDSVK | GRAAGTFDS: -0.14 (6 of 6 replicates; controls 2 of 18).
GFSLNEYGIS | VIYSDGRRTMYSDSVK | GRTAGTFDS: -0.36 (6 of 6 replicates; controls 0 of 18).
GFTLNEYGIS | VIYSDGRRTFYSDSVK | GEAAGTFDN: 0.51 (6 of 6 replicates; controls 0 of 18).
GFTLDSYGIL | VIYSDGRRPFYGDSVK | GRAAGTALS: nd (0 of 6 replicates; controls 0 of 18).
GFDLNSYGIS | VIYSDGRRTFYVDSVK | GRQAGTFDT: 0.26 (6 of 6 replicates; controls 0 of 18).
GFTLNSYGIS | VIYSDGRRTFYEDSVK | GREAGTFDK: 0.79 (6 of 6 replicates; controls 0 of 18).
GFTLESYGIS | VIYSDGRRTFYSDSVK | GKAAGTFDS: 0.30 (6 of 6 replicates; controls 0 of 18).
GFNLNSYGIS | VIYSDGRRTFYADSVK | GKVAGTFDS: -0.07 (6 of 6 replicates; controls 0 of 18).
KFSLNSYGIS | VIYSDGRRTFYKDSVK | GRTAGTFDS: 1.46 (6 of 6 replicates; controls 0 of 18).
GFTLNEYGIS | VIYSDGRRTFYDDSVK | GRSAGTFDS: 2.17 (4 of 6 replicates; controls 0 of 18).
GYTLNDYGIS | VIYSDGRRTQYIDSVK | GRAAGTFDS: nd (0 of 6 replicates; controls 1 of 18).
GFDLNSYGIS | VIYSTGRRTFYGDSVK | GRAAGWFNS: nd (0 of 6 replicates; controls 0 of 18).
HFTINSYGIS | VIYADGRRTFYGDSVK | GRAAGTFDS: 1.83 (6 of 6 replicates; controls 2 of 18).
GFTLNSYGIS | VIYSDGHRTFYHDSVK | GQLAGTFDS: -0.37 (4 of 6 replicates; controls 0 of 18).
GFQLNSYGIS | VIYADGRRTFYGDSVK | GRAAGTFDS: 0.31 (6 of 6 replicates; controls 0 of 18).
GFDLNSYGIS | VIYSDGRRTFYIDSVK | GQAAGTFDT: 0.42 (6 of 6 replicates; controls 0 of 18).
GFTLNEYGIS | VIYSDGRRTFYGDSVK | GRAAGTFGQ: 0.76 (6 of 6 replicates; controls 0 of 18).
GFQLNSYGIS | VIYSDGRRTFYKDSVK | GRAAGTFDS: 1.46 (3 of 6 replicates; controls 0 of 18).
GFTLNWYGIS | VIYSDGRRTFYDDSVK | GRAAGTGDS: nd (0 of 6 replicates; controls 0 of 18).
GFQLNSYGIS | VIYSDGRRTFYGDSVK | GRAAATFDS: 2.11 (1 of 6 replicates; controls 0 of 18).
GFTLNQYGIS | VIYSDGTRTFYSDSVK | GRQAGTFDS: 0.07 (6 of 6 replicates; controls 1 of 18).
GFWMNEYGIS | VIYSDGRRTFYADSVK | GRAAGTFHS: nd (0 of 6 replicates; controls 0 of 18).
GFSLNSYGIS | VIYSDGRRTFYIDSVK | GQEAGTFDS: 1.06 (6 of 6 replicates; controls 0 of 18).
GFTLNSYGIS | VIYSDGRRTAYGDSVK | GSAAGTFDS: 0.63 (6 of 6 replicates; controls 0 of 18).
GFTLESYGIS | VIYSDGKRTFYADSVK | GRAAGTFDS: 0.82 (6 of 6 replicates; controls 0 of 18).
GFTLNSYGIS | VIYSDGRRTFYGDNVK | GQAAGTFDT: 1.23 (2 of 6 replicates; controls 0 of 18).
GFTLNSYGIS | VIYSDGRRTFYGDSYK | GRWAGTFDS: nd (0 of 6 replicates; controls 0 of 18).
GFSLNSYGIS | VIYSDGRRTFYQDSVK | GSAAGTFDS: nd (0 of 6 replicates; controls 0 of 18).
GFTLNSYGIS | VIYSDGRRTFYTDSVK | TRAAGTFDS: nd (0 of 6 replicates; controls 0 of 18).
SFNLNSYGIS | VIYSDGRRTFYADSVK | GRQAGTFDS: 1.20 (6 of 6 replicates; controls 0 of 18).
GFTLNDYGIS | VCYSDGRRTQYIDSVK | GRAAGTFDS: nd (0 of 6 replicates; controls 0 of 18).
GFTLNSYGIS | LIYSDGRRTFYGDSVK | GRVAATFVS: nd (0 of 6 replicates; controls 0 of 18).

The 3 strongest on average among those seen in every replicate, once more:

With GFSLNEYGIS | VIYSDGRRTMYSDSVK | GRTAGTFDS the result was -0.36 (6 of 6 replicates; controls 0 of 18).
With GFSLNEYGIS | VIYSDGRRTMYGDSVK | GRAAGTFDS the result was -0.14 (6 of 6 replicates; controls 2 of 18).
With GFNLNSYGIS | VIYSDGRRTFYADSVK | GKVAGTFDS the result was -0.07 (6 of 6 replicates; controls 0 of 18).